One compound from ChEMBL document CHEMBL5634198, “Structural Investigations of Phthalazinone Derivatives as Allosteric Inhibitors of Human DNA Methyltransferase 3A” (ACS Med Chem Lett, 2024) can be followed below.

This experiment addresses DNA (cytosine-5)-methyltransferase 3A (Homo sapiens) (UniProt Q9Y6K1). As to the kind of experiment: Inhibition of DNMT3A (unknown origin) using [3H]-SAM as substrate incubated for 1 hr by scintillation counter analysis relative to (4aS,8aR)-4-(3-(4-(4-(2H-tetrazol-5-yl)phenoxy)butoxy)-4-methoxyphenyl)-2-cycloheptyl-4a,5,8,8a-tetrahydrophthalazin-1(2H)-one. The following applies: concentration not given here.

In general, inhibition refers to the percentage by which the read-out fell short of the control. As to `COc1ccc(C2=NN(C3CCCCCC3)C(=O)[C@@H]3CC=CC[C@H]23)cc1OCCCCOc1ccc(C#N)cc1`, the inhibition is over 4%.
